The list shows a part of the results, in another mix than the full data. Calls of active or inactive are those of the source.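 How the source made its calls: active means primary screen active, with duplicate mean activation above negative control mean plus 3 SD (cut at about 11% in these data); inactive means the rest.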
Biological target: High affinity choline transporter 1 (Homo sapiens) (UniProt Q9GZV3)
Assay: human choline transporter potentiators – cell-based, membrane potential dye, duplicate, confirmation (AID 504833)
Details: CHT-expressing cells, membrane potential dye fluorescence (FDSS); at 10 µM; active compounds read high; % of choline EC20–EC90 response window; HEK293 expressing CHT LV-AA mutant; choline added at its EC20

Chains of the proteins cited; added tags and fusions are not shown. Lines headed by an entry give the natural chain unless they say otherwise; changes in a name come on top.
UniProt Q9GZV3: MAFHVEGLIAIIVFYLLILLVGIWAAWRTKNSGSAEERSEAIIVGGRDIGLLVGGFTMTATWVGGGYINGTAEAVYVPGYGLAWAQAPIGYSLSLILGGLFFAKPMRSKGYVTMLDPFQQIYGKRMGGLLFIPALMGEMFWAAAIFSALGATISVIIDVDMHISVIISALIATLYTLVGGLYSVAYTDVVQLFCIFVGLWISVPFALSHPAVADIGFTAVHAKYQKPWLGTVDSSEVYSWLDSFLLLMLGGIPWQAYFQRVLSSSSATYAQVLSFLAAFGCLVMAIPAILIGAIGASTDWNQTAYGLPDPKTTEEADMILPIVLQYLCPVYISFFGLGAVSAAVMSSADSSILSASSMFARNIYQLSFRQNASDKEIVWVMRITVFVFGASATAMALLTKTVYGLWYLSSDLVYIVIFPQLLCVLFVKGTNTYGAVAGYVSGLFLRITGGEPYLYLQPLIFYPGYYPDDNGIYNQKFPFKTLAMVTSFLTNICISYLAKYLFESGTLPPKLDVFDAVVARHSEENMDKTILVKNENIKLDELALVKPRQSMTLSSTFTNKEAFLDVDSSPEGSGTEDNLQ

SMILES	activation
CCC1=CC2Cc3nc4ccc(Cl)cc4c(N)c3C(C1)C2 (configuration not stated)	active: 42.8%
CC1CCC(C(C)C)C(OP(=O)(Nc2ccccn2)c2ccccc2)C1 (configuration not stated)	active: 30.2%

— PubChem BioAssay AID504833 (Johns Hopkins Ion Channel Center, 2011)
